From PubChem BioAssay AID624377 (The Scripps Research Institute Molecular Screening Center, 2012)
This is a selection; strong and weak results do not stand in their true shares. Some of these compounds have results that are not shown, active ones among them. Activity calls are given as the source filed them. Rule as the data show it: active = inhibition above about 25%; inactive = the rest.

By UniProt entry, the sequences of proteins in these tests, tags left out. Residues count along the entry.
UniProt Q9ULH1, 325-724 limits assumed: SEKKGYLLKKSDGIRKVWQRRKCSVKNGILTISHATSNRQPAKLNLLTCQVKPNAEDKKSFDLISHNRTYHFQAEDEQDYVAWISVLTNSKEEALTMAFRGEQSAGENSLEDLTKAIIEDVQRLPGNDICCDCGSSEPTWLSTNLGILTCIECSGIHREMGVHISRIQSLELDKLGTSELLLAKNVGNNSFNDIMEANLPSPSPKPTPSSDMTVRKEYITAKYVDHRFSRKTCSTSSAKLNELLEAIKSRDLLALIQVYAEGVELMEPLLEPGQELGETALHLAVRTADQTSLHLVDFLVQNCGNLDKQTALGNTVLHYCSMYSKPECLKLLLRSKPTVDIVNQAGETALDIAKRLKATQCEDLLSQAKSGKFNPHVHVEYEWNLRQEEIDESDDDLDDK

Each molecule was assayed against Arf-GAP with SH3 domain, ANK repeat and PH domain-containing protein 1 (Homo sapiens) (UniProt Q9ULH1) (assay: inhibitors of human ASAP1 ArfGAP activity, primary screen, biochemical, fluorescence polarization (AID 624377;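 also: 0% = vehicle with enzyme and substrate and 100% = no enzyme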)). Details: ASAP1-stimulated ARF1 GTP hydrolysis, GDP FP detection; at 16.5 µM; hits give high values.

SMILES	inhibition
CN1[C@@H]2CC[C@H]1CC(OC(=O)C(O)(c1ccccc1)c1ccccc1)C2 (stereo partly specified)	inactive: -12.6%
O=C(NCC1(N2CCCCC2)CCCCC1)c1cc([N+](=O)[O-])ccc1Cl	inactive: -0.9%
Cc1ccc(C(=O)NCC2(N3CCCCC3)CCCCC2)cc1	inactive: -7.91%
CC(C)N1C(=O)CC2(CCN(CCOC(=O)C(O)(c3ccccc3)c3ccccc3)CC2)C1=O	inactive: 15.1%
COc1cc(SC)ccc1C(=O)NCC1(N(C)C)CCCCC1	inactive: -11.4%
CCN(CC)CC(C)C(C)OC(=O)C(O)(c1ccccc1)c1ccccc1 (stereo unspecified)	inactive: 4.92%
CN(C)C1CCCC1OC(=O)C(O)(c1ccccc1)c1ccccc1 (stereo unspecified)	inactive: -6.23%
CN(C)c1ccc(C(=O)NCC2(N(C)C)CCCCC2)cc1	inactive: 2.92%
Cc1ccccc1C(=O)NCC1(N2CCCCC2)CCCCC1	inactive: -10.7%
O=C(NCC1(N2CCCCC2)CCCCC1)c1cccc(Br)c1	inactive: 3.71%
Cc1cc(C(=O)NCC2(N3CCCCC3)CCCCC2)ccc1[N+](=O)[O-]	inactive: 8.34%
CCN1CCCC(OC(=O)C2(O)c3ccccc3C=Cc3ccccc32)C1 (stereo unspecified)	inactive: 5.66%
COc1ccc(C(=O)NCC2(N(C)C)CCCCC2)cc1	inactive: 0.58%
O=C(NCC1(N2CCCCC2)CCCCC1)c1cc(F)c(F)cc1Cl	inactive: -1.51%
C=CCN1CCN(CCOC(=O)C(O)(c2ccccc2)c2ccccc2)CC1	inactive: -9.22%
COc1cc(C(=O)NCC2(N(C)C)CCCCC2)c([N+](=O)[O-])cc1OC	inactive: -5.83%
CN(C)C1(CNC(=O)c2ccc(Br)cc2)CCCCC1	inactive: -12.4%
O=C(NCC1(N2CCCCC2)CCCCC1)c1cccc(Cl)c1	inactive: 9.58%
COc1ccc(Cl)cc1C(=O)NCC1(N(C)C)CCCCC1	inactive: -1.35%
COc1cccc(C(=O)NCC2(N3CCCCC3)CCCCC2)c1	inactive: -20.2%
O=C(OC1CN2CCC1CC2)C(CO)(c1ccccc1)c1ccccc1 (stereo unspecified)	inactive: -1.51%
CN(C)c1cccc(C(=O)NCC2(N(C)C)CCCCC2)c1	inactive: 2.65%
O=C(OCCN1CCCC1)C(O)(c1ccccc1)c1ccccc1	inactive: -1.07%
CC(C)Oc1ccc(C(=O)NCC2(N(C)C)CCCCC2)cc1	inactive: 1.27%
COc1ccc(Br)c(C(=O)NCC2(N3CCCCC3)CCCCC2)c1	inactive: -1.59%
C=C(C)C#CC(O)(C(=O)OC1CCN(C)CC1)c1ccccc1 (stereo unspecified)	inactive: -5.34%
